From patent publication US20260207704A1, “STAPLED PEPTIDES AND METHODS THEREOF” (priority 2022, published 2026)

Amino acid sequences for entries named in this document (tags omitted).
UniProt P35222, whole entry: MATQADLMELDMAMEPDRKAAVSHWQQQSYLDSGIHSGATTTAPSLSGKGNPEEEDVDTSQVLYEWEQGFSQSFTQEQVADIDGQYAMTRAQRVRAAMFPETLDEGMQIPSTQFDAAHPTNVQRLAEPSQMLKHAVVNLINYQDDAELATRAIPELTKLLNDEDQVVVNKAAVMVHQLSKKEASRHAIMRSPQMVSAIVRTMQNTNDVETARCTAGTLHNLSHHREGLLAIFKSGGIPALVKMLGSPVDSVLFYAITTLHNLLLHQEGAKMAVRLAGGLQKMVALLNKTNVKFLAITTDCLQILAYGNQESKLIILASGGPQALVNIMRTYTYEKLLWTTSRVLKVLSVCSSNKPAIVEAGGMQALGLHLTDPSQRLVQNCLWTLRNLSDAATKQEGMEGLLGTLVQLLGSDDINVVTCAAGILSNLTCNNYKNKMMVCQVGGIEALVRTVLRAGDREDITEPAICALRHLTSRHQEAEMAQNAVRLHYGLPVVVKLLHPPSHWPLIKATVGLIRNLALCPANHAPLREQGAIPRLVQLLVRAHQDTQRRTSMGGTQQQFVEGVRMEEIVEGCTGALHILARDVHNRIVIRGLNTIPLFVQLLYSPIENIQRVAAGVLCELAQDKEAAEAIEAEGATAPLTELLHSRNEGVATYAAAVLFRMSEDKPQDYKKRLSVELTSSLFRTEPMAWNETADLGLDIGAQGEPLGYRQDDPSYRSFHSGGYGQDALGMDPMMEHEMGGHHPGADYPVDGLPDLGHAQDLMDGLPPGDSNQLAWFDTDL

biological target: beta-catenin (Homo sapiens, UniProt P35222); test: fluorescence polarization binding to beta-catenin; conditions: beta-Catenin FP IC50 (nM)

Row | SMILES | IC50 [nM]
1 | CC(=O)N1CCC[C@]12CC=CCCCC1(CCCC=CCCCOC(=O)N3CC[C@@]4(C3)NC(=O)[C@H](CC(C)C)NC(=O)[C@H](Cc3ccccc3)NC(=O)[C@H](C)NC(=O)[C@H](CCC(=O)N3CCC(CC3)CN(C)C(=O)CC[C@@H](C(=O)N[C@@H](C)C(N)=O)NC(=O)[C@H](Cc3csc5ccccc35)NC(=O)[C@H](Cc3ccccc3C(F)(F)F)NC4=O)NC(=O)[C@H](Cc3cccc(C(=O)O)c3)NC(=O)[C@H](CC(=O)O)NC1=O)NC(=O)[C@H](CC(C)(C)C)NC(=O)[C@H](CC(=O)O)NC2=O (single isomer, unassigned) [I-96, Ac-PL3-Asp-Npg-B5-Asp-3COOHF-GlnR-Ala-Phe-Leu-PyrS2-2F3MeF-BztA-[4mampiperidine]GlnR-Ala-NH2] | 200 to 750
2 | CC(=O)N1CCC[C@]12CC=CCCCC1(CCCC=CCCCOC(=O)N3CC[C@@]4(C3)NC(=O)[C@H](CC(C)C)NC(=O)[C@H](Cc3ccccc3)NC(=O)[C@H](C)NC(=O)[C@H](CCC(=O)N3CCC(CC3)NC(=O)CC[C@@H](C(=O)N[C@@H](C)C(N)=O)NC(=O)[C@H](Cc3csc5ccccc35)NC(=O)[C@H](Cc3ccccc3C(F)(F)F)NC4=O)NC(=O)[C@H](Cc3cccc(C(=O)O)c3)NC(=O)[C@H](CC(=O)O)NC1=O)NC(=O)[C@H](CC(C)(C)C)NC(=O)[C@H](CC(=O)O)NC2=O (stereo partly drawn) [I-94, Ac-PL3-Asp-Npg-B5-Asp-3COOHF-[4aminopiperidine]GlnR-Ala-Phe-Leu-PyrS2-2F3MeF-BztA-GlnR-Ala-NH2] | 200 to 750
3 | CC(=O)N1CCC[C@]12CC=CCCCC1(CCCC=CCCCOC(=O)N3CC[C@@]4(C3)NC(=O)[C@H](CCCCNC(=O)CC[C@@H](C(=O)N[C@@H](C)C(N)=O)NC(=O)[C@H](Cc3csc5ccccc35)NC(=O)[C@H](Cc3ccsc3)NC4=O)NC(=O)[C@H](Cc3ccccc3)NC(=O)[C@H](C)NC(=O)[C@H](CCC(=O)N3CCOCC3)NC(=O)[C@H](Cn3cc(CC(C)(C)C(=O)O)nn3)NC(=O)[C@H](CC(=O)O)NC1=O)NC(=O)[C@H](CC(C)(C)C)NC(=O)[C@H]([C@H](C)O)NC2=O (relative stereo) [I-321, Ac-PL3-aThr-Npg-B5-Asp-[CH2CMe2CO2H]TriAzDap-MorphGln-Ala-Phe-Lys*3-PyrS2-3Thi-BztA-GlnR*3-Ala-NH2] | > 1000
4 | CC(=O)N1CCC[C@]12CC=CCCCC1(CCCC=CCCCOC(=O)N3CC[C@@]4(C3)NC(=O)[C@H](CCCCNC(=O)CC[C@@H](C(=O)N[C@@H](C)C(N)=O)NC(=O)[C@H](Cc3csc5ccccc35)NC(=O)[C@H](Cc3ccsc3)NC4=O)NC(=O)[C@H](Cc3ccccc3)NC(=O)[C@H](C)NC(=O)C(C)(C)NC(=O)[C@H](Cn3cc(CC(C)(C)C(=O)O)nn3)NC(=O)[C@H](CC(=O)O)NC1=O)NC(=O)[C@H](CC(C)(C)C)NC(=O)[C@H]([C@H](C)O)NC2=O (relative stereo) [I-317, Ac-PL3-aThr-Npg-B5-Asp-[CH2CMe2CO2H]TriAzDap-Aib-Ala-Phe-Lys*3-PyrS2-3Thi-BztA-GlnR*3-Ala-NH2] | > 1000
5 | CC(=O)N1CCC[C@]12CC=CCCCC1(CCCC=CCCCOC(=O)N3CC[C@@]4(C3)NC(=O)[C@H](CCCCNC(=O)CC[C@@H](C(=O)N[C@@H](CCCN3CCOCC3)C(=O)N[C@H](C)CO)NC(=O)[C@H](Cc3csc5ccccc35)NC(=O)[C@H](Cc3ccccc3C(F)(F)F)NC4=O)NC(=O)[C@H](Cc3ccccc3)NC(=O)[C@H](C)NC(=O)C(C)(C)NC(=O)[C@H](Cc3cccc(C(=O)O)c3)NC(=O)[C@H](CC(=O)O)NC1=O)NC(=O)[C@H](CC(C)(C)C)NC(=O)[C@H](CC(=O)O)NC2=O (relative stereo) [I-225, Ac-PL3-Asp-Npg-B5-Asp-3COOHF-Aib-Ala-Phe-Lys*3-PyrS2-2F3MeF-BztA-GlnR*3-MorphNva-dAlaol] | < 50
6 | CC(=O)N1CCC[C@]12CC=CCCCC1(CCCC=CCCCOC(=O)N3CC[C@@]4(C3)NC(=O)[C@H](CC(C)C)NC(=O)[C@H](Cc3ccccc3)NC(=O)[C@H](C)NC(=O)[C@H](CCC(=O)NCCCCNC(=O)CC[C@@H](C(=O)N[C@@H](C)C(N)=O)NC(=O)[C@H](Cc3csc5ccccc35)NC(=O)[C@H](Cc3ccccc3C(F)(F)F)NC4=O)NC(=O)[C@H](Cc3cccc(C(=O)O)c3)NC(=O)[C@H](CC(=O)O)NC1=O)NC(=O)[C@H](CC(C)(C)C)NC(=O)[C@H](CC(=O)O)NC2=O (stereo partly drawn) [I-92, Ac-PL3-Asp-Npg-B5-Asp-3COOHF-GlnR-Ala-Phe-Leu-PyrS2-2F3MeF-BztA-[diaminobutane]GlnR-Ala-NH2] | < 50
7 | CC(=O)N1CCC[C@]12CC=CCCCC1(CCCC=CCCCOC(=O)N3CC[C@@]4(C3)NC(=O)[C@H](CC(C)C)NC(=O)[C@H](Cc3ccccc3)NC(=O)[C@H](C)NC(=O)[C@H](CCC(=O)NC3CCN(CC3)C(=O)CC[C@@H](C(=O)N[C@@H](C)C(N)=O)NC(=O)[C@H](Cc3csc5ccccc35)NC(=O)[C@H](Cc3ccccc3C(F)(F)F)NC4=O)NC(=O)[C@H](Cc3cccc(C(=O)O)c3)NC(=O)[C@H](CC(=O)O)NC1=O)NC(=O)[C@H](CC(C)(C)C)NC(=O)[C@H](CC(=O)O)NC2=O (stereo partly drawn) [I-93, Ac-PL3-Asp-Npg-B5-Asp-3COOHF-GlnR-Ala-Phe-Leu-PyrS2-2F3MeF-BztA-[4aminopiperidine]GlnR-Ala-NH2] | 200 to 750
8 | CC(=O)N1CCC[C@]12CC=CCCCC1(CCCC=CCCCOC(=O)N3CC[C@@]4(C3)NC(=O)[C@H](CCCCNC(=O)CC[C@@H](C(=O)N[C@@H](C)C(N)=O)NC(=O)[C@H](Cc3csc5ccccc35)NC(=O)[C@H](Cc3ccccc3C(F)(F)F)NC4=O)NC(=O)[C@H](Cc3ccccc3)NC(=O)[C@H](C)NC(=O)C(C)(C)NC(=O)[C@H](Cn3cc(CC(C)(C)C(=O)O)nn3)NC(=O)[C@H](CC(=O)O)NC1=O)NC(=O)[C@H](CC(C)(C)C)NC(=O)[C@H](CC(=O)O)NC2=O (relative stereo) [I-195, Ac-PL3-Asp-Npg-B5-Asp-[CH2CMe2CO2H]TriAzDap-Aib-Ala-Phe-Lys*3-PyrS2-2F3MeF-BztA-GlnR*3-Ala-NH2] | < 50
9 | CC(=O)N1CCC[C@]12CC=CCCCC1(CCCC=CCCCOC(=O)N3CC[C@@]4(C3)NC(=O)[C@H](CC(C)C)NC(=O)[C@H](Cc3ccccc3)NC(=O)[C@H](C)NC(=O)[C@H](CCCCNC(=O)c3cccc(c3)-c3cccc(c3)C(=O)NCCCC[C@@H](C(N)=O)NC(=O)[C@H](Cc3csc5ccccc35)NC(=O)[C@H](Cc3ccccc3Cl)NC4=O)NC(=O)[C@H](Cc3cccc(C(=O)O)c3)NC(=O)[C@H](CC(=O)O)NC1=O)NC(=O)[C@H](CC(C)(C)C)NC(=O)[C@H](CC(=O)O)NC2=O (stereo partly drawn) [I-54, Ac-PL3-Asp-Npg-B5-Asp-3COOHF-[Biphen33COOH]Lys-Ala-Phe-Leu-PyrS2-2ClF-BztA-Lys-NH2] | 50 to 200

Further lines, results first:

Row | IC50 [nM] | SMILES
10 | 50 to 200 | CC(=O)N1CCC[C@]12CC=CCCCC1(CCCC=CCCCOC(=O)N3CC[C@@]4(C3)NC(=O)[C@H](CSCc3cccc(c3)-c3cccc(c3)CSC[C@@H](C(=O)N[C@@H](C)C(N)=O)NC(=O)[C@H](Cc3csc5ccccc35)NC(=O)[C@H](Cc3ccsc3)NC4=O)NC(=O)[C@H](Cc3ccccc3)NC(=O)[C@H](C)NC(=O)C(C)(C)NC(=O)[C@H](Cc3cccc(C(=O)O)c3)NC(=O)[C@H](CC(=O)O)NC1=O)NC(=O)[C@H](CC(C)(C)C)NC(=O)[C@H](CC(=O)O)NC2=O (stereo partly drawn) [I-567, Ac-PL3-Asp-Npg-B5-Asp-3COOHF-Aib-Ala-Phe-[3_3-biph]Cys-PyrS2-3Thi-BztA-Cys-Ala-NH2]
11 | > 1000 | CC(=O)N1CCC[C@]12CC=CCCCC1(CCCC=CCCCOC(=O)N3CC[C@@]4(C3)NC(=O)[C@H](CC(=O)NCCC[C@@H](C(N)=O)NC(=O)[C@H](Cc3csc5ccccc35)NC(=O)[C@H](Cc3ccsc3)NC4=O)NC(=O)[C@H](Cc3ccccc3)NC(=O)[C@H](C)NC(=O)[C@H](C)NC(=O)[C@H](Cc3cccc(C(=O)O)c3)NC(=O)[C@H](CC(=O)O)NC1=O)NC(=O)[C@H](CC(C)(C)C)NC(=O)[C@H](CC(=O)O)NC2=O (single isomer, unassigned) [I-40, Ac-PL3-Asp-Npg-B5-Asp-3COOHF-Ala-Ala-Phe-AsnR*3-PyrS2-3Thi-BztA-Orn*3-NH2]
12 | 50 to 200 | CC(=O)N1CCC[C@]12CC=CCCCC1(CCCC=CCCCOC(=O)N3CC[C@@]4(C3)NC(=O)[C@H](CSCc3ccc5cc(ccc5c3)CSC[C@@H](C(=O)N[C@@H](C)C(N)=O)NC(=O)[C@H](Cc3csc5ccccc35)NC(=O)[C@H](Cc3ccsc3)NC4=O)NC(=O)[C@H](Cc3ccccc3)NC(=O)[C@H](C)NC(=O)C(C)(C)NC(=O)[C@H](Cc3cccc(C(=O)O)c3)NC(=O)[C@H](CC(=O)O)NC1=O)NC(=O)[C@H](CC(C)(C)C)NC(=O)[C@H](CC(=O)O)NC2=O (stereo partly drawn) [I-566, Ac-PL3-Asp-Npg-B5-Asp-3COOHF-Aib-Ala-Phe-[2_6-naph]Cys-PyrS2-3Thi-BztA-Cys-Ala-NH2]
13 | < 50 | CC(=O)N1CCC[C@]12CC=CCCCC1(CCCC=CCCCOC(=O)N3CC[C@@]4(C3)NC(=O)[C@H](CCCNC(=O)CCC[C@@H](C(=O)N[C@@H](C)C(N)=O)NC(=O)[C@H](Cc3csc5ccccc35)NC(=O)[C@H](Cc3ccsc3)NC4=O)NC(=O)[C@H](Cc3ccccc3)NC(=O)[C@H](C)NC(=O)C(C)(C)NC(=O)[C@H](Cc3cccc(C(=O)O)c3)NC(=O)[C@H](CC(=O)O)NC1=O)NC(=O)[C@H](CC(C)(C)C)NC(=O)[C@H](CC(=O)O)NC2=O (relative stereo) [I-560, Ac-PL3-Asp-Npg-B5-Asp-3COOHF-Aib-Ala-Phe-Orn*3-PyrS2-3Thi-BztA-hGlnR*3-Ala-NH2]
14 | < 50 | CC(=O)N1CCC[C@]12CC=CCCCC1(CCCC=CCCCOC(=O)N3CC[C@@]4(C3)NC(=O)[C@H](CCCCNC(=O)CC[C@@H](C(=O)N[C@@H](C)C(N)=O)NC(=O)[C@H](Cc3csc5ccccc35)NC(=O)[C@H](Cc3ccccc3C(N)=O)NC4=O)NC(=O)[C@H](Cc3ccccc3)NC(=O)[C@H](C)NC(=O)C(C)(C)NC(=O)[C@H](Cc3cccc(C(=O)O)c3)NC(=O)[C@H](CC(=O)O)NC1=O)NC(=O)[C@H](CC(C)(C)C)NC(=O)[C@H](CC(=O)O)NC2=O (relative stereo) [I-542, Ac-PL3-Asp-Npg-B5-Asp-3COOHF-Aib-Ala-Phe-Lys*3-PyrS2-2cbmF-BztA-GlnR*3-Ala-NH2]
15 | 200 to 750 | CC(=O)N1CCC[C@]12CC=CCCCC1(CCCC=CCCCOC(=O)N3CC[C@@]4(C3)NC(=O)[C@H](CC(=O)NCCC[C@@H](C(N)=O)NC(=O)[C@H](Cc3csc5ccccc35)NC(=O)[C@H](Cc3ccsc3)NC4=O)NC(=O)[C@H](Cc3ccccc3)NC(=O)[C@H](C)NC(=O)[C@H](C)NC(=O)[C@H](Cc3cccc(C(=O)O)c3)NC(=O)[C@H](CC(=O)O)NC1=O)NC(=O)[C@H](CC(C)(C)C)NC(=O)[C@H](CC(=O)O)NC2=O (single isomer, unassigned) [I-41, Ac-PL3-Asp-Npg-B5-Asp-3COOHF-Ala-Ala-Phe-AsnR*3-PyrS2-3Thi-BztA-Orn*3-NH2]
